Source: publication PMC7876115, “Flagellin-based electrochemical sensing layer for arsenic detection in water” (2021)

Experiments:
Experiment in all cases: isothermal titration calorimetry, one-binding-site model
FliC-ArsR6 = conditions: 100 mM HEPES, 150 mM NaCl, 1 mM TCEP, pH 7.0, 25 °C, 10% DMSO, N = 0.5, protein ~50 µM in legend, ~5 µM in methods
FliC-ArsR10 = conditions: 100 mM HEPES, 150 mM NaCl, 1 mM TCEP, pH 7.0, 25 °C, 10% DMSO; N = 0.5; protein ~50 µM in legend, ~5 µM in methods
FliC-ArsR9 = conditions: 100 mM HEPES, 150 mM NaCl, 1 mM TCEP, pH 7.0, 25 °C, 10% DMSO; N = 0.5; protein ~50 µM in legend, ~5 µM in methods; N = 0.2

O=[As]c1ccccc1 (stereo not drawn)
Kd (FliC-ArsR6): 6.3·10^−7 M
Kd (FliC-ArsR10): 3.7·10^−7 M
Kd (FliC-ArsR9): 6.9·10^−7 M
